## Measured affinities in a library of Ab-14 heavy chain variants

All variants were tested on one target, the spike HR2 peptide PDVDLGDISGINAS (SARS-CoV-2).

Ab-14 is the parent antibody, in scFv form: VH, then the linker GGGGSGGGGSGGGGS, then VL. The light chain is unchanged in all variants.
VH: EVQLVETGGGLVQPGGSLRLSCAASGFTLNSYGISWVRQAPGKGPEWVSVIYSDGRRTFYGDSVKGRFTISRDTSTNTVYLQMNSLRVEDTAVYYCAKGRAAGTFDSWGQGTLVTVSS
VL: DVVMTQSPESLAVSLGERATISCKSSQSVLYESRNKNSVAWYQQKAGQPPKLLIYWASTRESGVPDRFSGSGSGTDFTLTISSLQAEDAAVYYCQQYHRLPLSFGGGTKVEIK

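The parent was found by panning a naive human phage display library on the peptide. These sequences belong to a second round, designed from the earlier measurements on random variants of the parent. Their group label is 14H_En_Gen (En: ensemble of fine-tuned language models; Gen: genetic algorithm). Affinity was read by AlphaSeq, a pooled yeast mating assay with surface-displayed partners. Pairs that bind mate more often; barcode pairs of the diploids are counted by sequencing. Scores were corrected for input abundance and mapped to Kd with protein pairs of known affinity run in the same pool. There are six technical replicates.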

Each variant is given by its three heavy chain CDRs, as the data file delimits them; those of the parent are GFTLNSYGIS, VIYSDGRRTFYGDSVK, GRAAGTFDS.
Affinities are written as log10 Kd with Kd in nM; a lower number is a better binder.
Averages over replicates are reported, and they cover detected replicates only.
An entry "nd" has no value in the source: the pair was not observed among the diploids in that replicate. This suggests poor binding but is not conclusive.
As a blank, each scFv also met three strains without target: over all heavy chain designs, 1% of these pairings were detected, typically at 2.08 and seldom below 0.84. The control count says in how many pairings with the empty strains this scFv gave a signal, with their mean in brackets.
The authors' rule: three or more of the six replicates give a measured affinity, fewer mean a poor binder.
The range of this assay differs from that of the first round, and the authors advise against merging the two.

CDR-H1,CDR-H2,CDR-H3,log10 Kd (nM) by replicate,mean log10 Kd (nM),signal with controls
GFDLNEYGIS,VIYADGVRTYYADSVK,GENAGTFDL,-0.05 / nd / 1.13 / nd / 0.90 / 0.17,0.54,0/18
GFDLNEYGIS,VIYADGMRTFYSDSVK,GNQAGTFDV,-0.74 / -0.23 / -0.28 / 0.00 / -0.49 / -0.34,-0.34,0/18
GFDLDEYGIS,VIYADGMRTFYADSVK,GTNAGTFDV,-0.24 / -0.42 / -0.78 / -0.85 / -0.38 / -0.55,-0.54,1/18 (2.42)
GFDLDEYGIS,VIYADGMRTYYADSVK,GNVAGTFDQ,-0.23 / -0.45 / -0.46 / -0.55 / -0.17 / -0.03,-0.31,0/18
GFDLNEYGIS,VIYADGMRTAYADKVK,GNVAGTFDQ,-0.14 / -0.34 / -0.44 / -0.62 / -0.43 / -0.36,-0.39,0/18
GFDLNEYGIS,VIYADGMRTAYADSVK,GETAGTFDM,-0.33 / -0.45 / -0.79 / -0.57 / -0.74 / -0.26,-0.52,1/18 (2.02)
GFDLNEYGIS,VIYADGMRTAYSDSVK,GNEAGTFDI,0.31 / 0.61 / 0.27 / -0.16 / 0.28 / 0.52,0.31,1/18 (1.56)
GFDLNEYGIS,VIYADGKRTAYSDSVK,GNTAGTFDV,-0.53 / -0.46 / -0.11 / -0.35 / -0.61 / -0.34,-0.40,0/18
GFDLNEYGIS,VIYADGVRTAYIDSVK,GNVAGTFDV,-0.41 / -0.65 / -0.43 / -0.57 / -0.72 / -0.38,-0.53,1/18 (1.96)
GFDLNEYGIS,VIYADGVRQAYADSVK,GNNAGTFDI,2.24 / 2.22 / nd / nd / 3.02 / 2.79,2.57,0/18
GFDLNEYGIS,VIYADGMRTAYADDVK,GEIAGTFDV,-0.50 / -0.60 / -0.59 / -0.74 / -0.59 / -0.54,-0.59,0/18
GFDLNEYGIS,VIYADGVRTAYADNVK,GNNAGTFDV,-0.31 / -0.18 / -0.21 / -0.15 / 0.19 / 0.26,-0.06,0/18
GFDLDEYGIS,VIYADGRRTFYADSVK,GNQAGTFDV,-0.29 / -0.60 / -0.35 / -0.44 / -0.60 / -0.52,-0.47,0/18
GFDLNEYGIS,VIYADGMRTFYADDVK,GNNAGTFDQ,1.11 / 0.72 / 0.24 / 0.10 / 0.68 / 0.66,0.59,0/18
GFDLDEYGIS,VIYADGMRTAYSDSVK,GENAGTFDM,0.34 / 0.00 / 0.10 / 0.24 / 0.38 / 0.35,0.24,0/18
GFDLNEYGIS,VIYADGMRTFYADDVK,GQNAGTFDL,0.44 / -0.18 / 0.09 / 0.89 / 1.80 / 0.23,0.54,0/18
GFDLNEYGIS,VIYADGVRTQYADSVK,GNQAGTFDV,0.18 / -0.08 / -0.20 / -0.46 / -0.17 / 0.17,-0.10,1/18 (1.46)
GFDLEDYGIS,VIYADGKRTAYSDSVK,GNVAGTFDV,0.54 / 0.88 / -0.25 / 0.34 / -0.09 / 0.40,0.30,0/18
GFDLDEYGIS,VIYADGRRTAYSDSVK,GEVAGTFDT,0.26 / -0.44 / -0.48 / -0.46 / -0.46 / -0.15,-0.29,0/18
GFDLNEYGIS,VIYADGVRTVYADSVK,GNVAGTFDI,-0.17 / -0.93 / -0.91 / -0.76 / -1.00 / -0.69,-0.75,0/18
GFDLNEYGIS,VIYADGRRTYYADSVK,GNVAGTFDI,-0.45 / -0.02 / -0.74 / -0.68 / -0.33 / -0.34,-0.43,1/18 (1.92)
GFDLNEYGIS,VIYADGQRTAYADTVK,GNVAGTFDV,-0.65 / -0.54 / -1.10 / -0.59 / -0.69 / -0.69,-0.71,0/18
GFDLNEYGIS,VIYADGMRTAYTDSVK,GNNAGTFDT,0.10 / 0.18 / 0.68 / 0.13 / -0.27 / 0.31,0.19,0/18
GFDLDEYGIS,VIYADGMRTAYSDSVK,GNVAGTFDE,-0.37 / -0.44 / -0.78 / -0.69 / -0.74 / -0.54,-0.59,0/18
GFDLNEYGIS,VIYADGQRTAYADKVK,GNVAGTFDQ,0.63 / -0.47 / 0.63 / 0.08 / -0.31 / 0.96,0.25,0/18
GFDLDEYGIS,VIYADGMRTAYADSVK,GEVAGTFDQ,-0.42 / -0.44 / -0.15 / -0.81 / -0.62 / 0.34,-0.35,0/18
GFDLNEYGIS,VIYADGKRTAYSDSVK,GNQAGTFDL,1.24 / 0.61 / 1.23 / nd / 0.71 / nd,0.95,0/18
GFDLNEYGIS,VIYADGVRTYYADSVK,GEVAGTFDI,-0.37 / -0.72 / -0.20 / -0.58 / -0.65 / -0.71,-0.54,0/18
GFDLDEYGIS,VIYADGQRTAYADSVK,GNTAGTFDV,0.17 / -0.36 / -0.05 / -0.44 / -0.12 / -0.14,-0.16,0/18
GFDLNEYGIS,VIYADGRRTAYADNVK,GEVAGTFDQ,-0.37 / -0.76 / -0.77 / -1.06 / -0.85 / -0.93,-0.79,0/18
GFDLNEYGIS,VIYADGMRTAYADSVK,GEQAGTFDI,-0.68 / -0.84 / -0.56 / -0.82 / 0.76 / -0.80,-0.49,0/18
GFDLNEYGIS,VIYADGSRTAYADSVK,GNNAGTFDV,-0.18 / -0.38 / -0.79 / -0.67 / -0.75 / -0.13,-0.48,0/18
GFDLNEYGIS,VIYADGVRTQYADSVK,GNVAGTFDL,-0.33 / -0.33 / -1.06 / -0.40 / -0.22 / -0.30,-0.44,0/18
GFDLDEYGIS,VIYADGMRTAYIDSVK,GNNAGTFDV,0.44 / 0.51 / 1.07 / 0.50 / -0.17 / 0.64,0.50,0/18

Repeated from above, the 5 best binders with a signal in all replicates:

CDR-H1	CDR-H2	CDR-H3	log10 Kd (nM) by replicate	mean log10 Kd (nM)	signal with controls
GFDLNEYGIS	VIYADGRRTAYADNVK	GEVAGTFDQ	-0.37 / -0.76 / -0.77 / -1.06 / -0.85 / -0.93	-0.79	0/18
GFDLNEYGIS	VIYADGVRTVYADSVK	GNVAGTFDI	-0.17 / -0.93 / -0.91 / -0.76 / -1.00 / -0.69	-0.75	0/18
GFDLNEYGIS	VIYADGQRTAYADTVK	GNVAGTFDV	-0.65 / -0.54 / -1.10 / -0.59 / -0.69 / -0.69	-0.71	0/18
GFDLNEYGIS	VIYADGMRTAYADDVK	GEIAGTFDV	-0.50 / -0.60 / -0.59 / -0.74 / -0.59 / -0.54	-0.59	0/18
GFDLDEYGIS	VIYADGMRTAYSDSVK	GNVAGTFDE	-0.37 / -0.44 / -0.78 / -0.69 / -0.74 / -0.54	-0.59	0/18

Data: MIT Lincoln Laboratory AlphaSeq set, Li et al. 2023, doi:10.1038/s41467-023-39022-2, as distributed in FLAb.